Results from article PMC10223019, “Preclinical Evaluation of a PSMA-Targeting Homodimer with an Optimized Linker for Imaging of Prostate Cancer” (Molecules, 2023).

By UniProt entry, the sequences of proteins in these tests, tags left out.
UniProt Q04609, whole entry: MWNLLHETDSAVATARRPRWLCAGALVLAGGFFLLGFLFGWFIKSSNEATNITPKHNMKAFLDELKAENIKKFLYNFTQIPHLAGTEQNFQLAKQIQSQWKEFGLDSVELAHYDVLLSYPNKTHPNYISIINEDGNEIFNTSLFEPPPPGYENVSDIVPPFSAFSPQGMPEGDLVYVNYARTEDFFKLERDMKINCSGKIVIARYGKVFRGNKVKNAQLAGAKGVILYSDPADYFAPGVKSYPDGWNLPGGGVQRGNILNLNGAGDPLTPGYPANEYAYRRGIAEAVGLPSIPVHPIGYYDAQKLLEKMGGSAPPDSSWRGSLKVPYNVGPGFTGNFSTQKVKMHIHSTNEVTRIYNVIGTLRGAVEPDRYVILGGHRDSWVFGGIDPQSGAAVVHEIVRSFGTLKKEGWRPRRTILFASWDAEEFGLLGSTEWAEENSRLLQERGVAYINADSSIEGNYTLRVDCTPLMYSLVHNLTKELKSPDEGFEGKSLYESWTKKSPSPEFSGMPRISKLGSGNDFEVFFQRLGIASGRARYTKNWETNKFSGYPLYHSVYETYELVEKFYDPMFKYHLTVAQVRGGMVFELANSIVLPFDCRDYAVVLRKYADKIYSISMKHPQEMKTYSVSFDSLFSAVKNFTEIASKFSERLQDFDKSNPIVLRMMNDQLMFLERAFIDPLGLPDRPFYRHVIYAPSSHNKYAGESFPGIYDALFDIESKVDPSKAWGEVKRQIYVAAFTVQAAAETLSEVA

Molecular target: Recombinant human PSMA (rhPSMA) (Homo sapiens, UniProt Q04609)
Experiment: NAALADase assay (competitive inhibition, Amplex Red glutamate readout)
Settings: read-out: IC50, nM (NAALADase), substrate Ac-Asp-Glu, 1 h 37 °C

## CC(C)C[C@H](NC(=O)[C@H](Cc1ccccc1)NC(=O)[C@@H](N)CN)[C@@H](O)CC(=O)NCCCCCC(=O)NCCCC[C@H](NC(=O)N[C@@H](CCC(=O)O)C(=O)O)C(=O)O [Compound 15]
  IC50: 3.17 nM
